Measurements published in PubChem BioAssay AID1347075 (National Center for Advancing Translational Sciences (NCATS), 2019).
Only a part is listed here, and it is no random draw. Inconclusive results are not listed. Activity calls are given as the source filed them. Calls come from the whole dose curve; as a rule, active = well fitted cell-killing curve with a large enough effect; inconclusive = small, poorly fitted or top-dose-only effect, or effect the other way; inactive = flat fitted curve, though single readings scatter.

Experiment: qHTS assay for MDR1-selective chemotherapeutics: Primary screen using the parental adenocarcinoma cell KB-3-1; note: nearly all actives have a fitted effect of over 60% in size
Conditions: KB-3-1 viability, CellTiter-Glo ATP luminescence, 72 h; at 46.1 µM (top of the series)
Text: A prime difficulty in effectively treating cancer is the development of cellular resistance to multiple structurally unrelated anticancer drugs, a phenomenon known as multidrug resistance (MDR). […] Numerous strategies to overcome P-gp-mediated MDR have been explored, including the design of drugs that evade recognition and efflux, and development of inhibitors to block efflux and restore drug accumulation. […] An alternative approach is to exploit resistance by identifying drugs that target MDR cells over the non-resistant parental cells from which they were selected. […] The development of MDR1-selective agents represents a new strategy for resolving multidrug resistance, as it remains a long-standing clinical challenge for cancer chemotherapy.
Our goal is to identify compounds that selectively kill P-gp-expressing MDR cells. We will identify MDR1-selective compounds by comparing toxicity of compounds in the screening library against parental, drug-naive (KB-3-1) adenocarcinoma cells as well as their drug-selected MDR sub-line (KB-V1). The differential toxicity of compounds against these two cell lines will be used to identify MDR1-selective compounds, whose cytotoxicity is potentiated, rather than diminished, by P-gp expression. This assay will be utilized to conduct a quantitative high-throughput screen (qHTS) in collaboration with the NIH Chemical Genomics Center to identify selective agents, and probe hits arising from the screen will be validated using secondary assays and characterized through a well-established follow-up research program. This screen was run against the entire NCGC library collection of about 400,000 compounds.
NIH Molecular Libraries Probe Production Network [MLPCN]
NIH Chemical Genomics Center [NCGC]
PI: Michael Gottesman PhD, National Cancer Institute, NIH
Briefly, 5 microL of media containing either KB-3-1 cells (columns 1-2, 4-48) are dispensed into Greiner white, treated solid-bottom 1536-well assay plates (media-only control is added to column 3). Compounds are then transferred via Kalypsys pin tool equipped with 1536-pin array (10 nL slotted pins, V&P Scientific, San Diego, CA). Following addition of compound, the plates are incubated at 37 degrees C for 72 hours. CellTiter-Glo (2.5 µL/well) is then added, and the plates are read in a ViewLux reader (Perkin-Elmer, clear luminescence filter, 1 second exposure, 1x binning) following a 10 minute incubation. All cells are dispensed in DMEM phenol-red free media containing 10% FBS.
Library plates were screened starting from the lowest and proceeding to the highest concentration. Vehicle-only plates, with DMSO being pin-transferred to columns 5-48, will be inserted uniformly at the beginning and the end of each library in order to monitor and record any shifts in the background, which can be affected by reagent dispensers or loss in enzyme activity over time. Screening data will be corrected, normalized, and concentration-effect relationships will be derived by using publicly-available NCGC, NCATS curve fitting algorithms (http://ncgc.nih.gov/pub/openhts).
% is set by controls: 0 for no effect and ±100 for the full control effect.

Row | Compound | activity change, negative = cytotoxic
1 | COc1ccc(C(=O)NCC2(N3CCOCC3)CCCCC2)cc1OC | inactive: -1.75%
2 | O=c1[nH]c2ccccc2n1C1CCN(C(c2ccnc3ccccc23)c2nnnn2C2CCCC2)CC1 (configuration not stated) | inactive: 0.0287%
3 | O=c1[nH]c2ccccc2n1C1CCN(C(c2cccs2)c2nnnn2C2CCCCC2)CC1 (configuration not stated) | inactive: -1.66%
4 | O=Cc1ccc(N(CCCl)CCCl)cc1 | inactive: 13.4%
5 | O=C(NCC1(N2CCOCC2)CCCCC1)c1cc(Br)ccc1Cl | inactive: -32.8%
6 | CCCCn1nnnc1C(c1ccccc1)N1CCC(n2c(=O)[nH]c3ccccc32)CC1 (configuration not stated) | inactive: 0.0564%
7 | COc1cc(C(=O)NCC2(N3CCOCC3)CCCCC2)cc(OC)c1C | inactive: -1.03%
8 | CCCCn1nnnc1C(c1cccc(OC)c1OC)N1CCC(n2c(=O)[nH]c3ccccc32)CC1 (configuration not stated) | inactive: -11.6%
9 | O=C(OC1CN2CCC1CC2)C1c2ccccc2C=Cc2ccccc21 (configuration not stated) | inactive: -19.7%
10 | O=c1[nH]c2ccccc2n1C1CCN(C(c2cccs2)c2nnnn2C2CCCC2)CC1 (configuration not stated) | inactive: -0.0173%
11 | O=C(O)c1cccc(Nc2c([N+](=O)[O-])cc([N+](=O)[O-])cc2[N+](=O)[O-])c1 | inactive: 0.129%
12 | N/C(=N\O)c1c(N)no[n+]1[O-] | inactive: 21.5%
13 | CCOC(=O)N1CCC(Nc2ccc(C)cc2)CC1 | inactive: -12%
14 | COc1cccc(C(c2nnnn2C(C)(C)C)N2CCC(n3c(=O)[nH]c4ccccc43)CC2)c1OC (configuration not stated) | inactive: -1.34%
15 | CCOC(=O)C(CC)C1=NC(C)(C)Cc2ccccc21.O=[N+]([O-])c1cc([N+](=O)[O-])c(O)c([N+](=O)[O-])c1 (configuration not stated) | inactive: 16.3%
16 | CC(C)(C)OC(=O)N1CCC(N(C(=O)c2ccccc2)c2ccc(Cl)cc2)CC1 | inactive: -0.801%
17 | O=C(NCC1(N2CCOCC2)CCCCC1)c1ccc([N+](=O)[O-])cc1 | inactive: 10.2%
18 | O=C(NCC1(N2CCOCC2)CCCCC1)c1ccccc1[N+](=O)[O-] | inactive: -28.3%
19 | N#Cc1ccc(C(=O)NCC2(N3CCCCC3)CCCCC2)cc1 | inactive: -3.84%
20 | c1ccc(CN2CCC(Nc3ccccc3)CC2)cc1 | inactive: -4.88%
21 | CCCN1CCC(Nc2cc(OC)cc(OC)c2)CC1 | inactive: 6.5%
22 | O=c1[nH]c2ccccc2n1C1CCN(C(c2ccccc2)c2nnnn2C2CCCC2)CC1 (configuration not stated) | inactive: -8.54%
23 | O=C(NCC1(N2CCOCC2)CCCCC1)c1ccccc1 | inactive: -0.0592%
24 | CN(C)C1(CNC(=O)c2cccc(C#N)c2)CCCCC1 | inactive: 0.0836%
25 | Cc1ccc(NC2(C#N)CCN(Cc3ccccc3)CC2)cc1 | inactive: -11.3%
26 | Cc1ccc(C(=O)NCC2(N3CCCCC3)CCCCC2)o1 | inactive: -1.19%

Row | Compound | activity change, negative = cytotoxic
27 | Fc1ccccc1NC1CCN(Cc2ccccc2)CC1 | inactive: 3.29%
28 | COc1cc(OC)cc(C(=O)NCC2(N3CCCCC3)CCCCC2)c1 | inactive: -13.1%
29 | CN(C)C1(CNC(=O)c2ccc(C(C)(C)C)cc2)CCCCC1 | inactive: -9.34%
30 | CC(=O)N(c1ccccc1)C1CCNCC1 | inactive: -12.8%
31 | CCC(c1nnnn1C1CCCCC1)N1CCC(n2c(=O)[nH]c3ccccc32)CC1 (configuration not stated) | inactive: 0.0194%
32 | O=C(NCC1(N2CCCCC2)CCCCC1)c1ccco1 | inactive: -5.82%
33 | CC(C)(C)c1ccc(C(=O)NCC2(N3CCOCC3)CCCCC2)cc1 | inactive: 1.56%
34 | CN(C)c1ccc(C(=O)NCC2(N3CCCCC3)CCCCC2)cc1 | inactive: -3.08%
35 | Cn1c(=O)[nH]cc(N(CCCl)CCCl)c1=O | inactive: -14.9%
36 | Cc1ccccc1C(=O)NCC1(N(C)C)CCCCC1 | inactive: -2.95%
37 | Cc1ccccc1NC1(C#N)CCN(Cc2ccccc2)CC1 | inactive: 4.41%
38 | CCN1CCC(Nc2cccc(F)c2)CC1 | inactive: 4.36%
39 | CC(C)(C)n1nnnc1C(c1ccnc2ccccc12)N1CCC(n2c(=O)[nH]c3ccccc32)CC1 (configuration not stated) | inactive: -0.049%
40 | ClCCN(CCCl)c1ccccc1 | inactive: 18.3%
41 | CC(C)(C)OC(=O)N1CCC(Nc2ccccc2)CC1 | inactive: -5.81%
42 | ClCCN(CCCl)c1ccc(C=C2C=CC=C2)cc1 | inactive: 9.25%
43 | NN(c1ccccc1)C1CCN(CCc2ccccc2)CC1 | inactive: 16.8%
44 | O=C(O)C1(Nc2ccccc2)CCN(Cc2ccccc2)CC1 | inactive: 3.75%
45 | CCOc1ncccc1C(=O)NCC1(N2CCOCC2)CCCCC1 | inactive: 1.1%
46 | CN1CCC(Nc2ccc(F)c(Cl)c2)CC1 | inactive: 1.11%
47 | CN1CCC(Nc2ccc(Cl)cc2)CC1 | inactive: 0.111%
48 | CCC(CO)(C(=O)OC1CN2CCC1CC2)c1ccccc1 (configuration not stated) | inactive: 2.79%
49 | COc1cccc(C(=O)N(c2cc(C)cc(C)c2)C2CCN(C(=O)OC(C)(C)C)CC2)c1 | inactive: -9.81%
50 | COc1cc(C(=O)NCC2(N3CCOCC3)CCCCC2)cc(OC)c1OC | inactive: 6.04%
51 | COc1cc(OC)cc(C(=O)NCC2(N3CCOCC3)CCCCC2)c1 | inactive: 15.1%
52 | COc1cccc(C(c2nnnn2C2CCCC2)N2CCC(n3c(=O)[nH]c4ccccc43)CC2)c1OC (configuration not stated) | inactive: -9.93%
